{
  "sequences": {"note": "Chains of the proteins cited; added tags and fusions are not shown. Lines headed by an entry give the natural chain unless they say otherwise; changes in a name come on top.", "UniProt Q05655": "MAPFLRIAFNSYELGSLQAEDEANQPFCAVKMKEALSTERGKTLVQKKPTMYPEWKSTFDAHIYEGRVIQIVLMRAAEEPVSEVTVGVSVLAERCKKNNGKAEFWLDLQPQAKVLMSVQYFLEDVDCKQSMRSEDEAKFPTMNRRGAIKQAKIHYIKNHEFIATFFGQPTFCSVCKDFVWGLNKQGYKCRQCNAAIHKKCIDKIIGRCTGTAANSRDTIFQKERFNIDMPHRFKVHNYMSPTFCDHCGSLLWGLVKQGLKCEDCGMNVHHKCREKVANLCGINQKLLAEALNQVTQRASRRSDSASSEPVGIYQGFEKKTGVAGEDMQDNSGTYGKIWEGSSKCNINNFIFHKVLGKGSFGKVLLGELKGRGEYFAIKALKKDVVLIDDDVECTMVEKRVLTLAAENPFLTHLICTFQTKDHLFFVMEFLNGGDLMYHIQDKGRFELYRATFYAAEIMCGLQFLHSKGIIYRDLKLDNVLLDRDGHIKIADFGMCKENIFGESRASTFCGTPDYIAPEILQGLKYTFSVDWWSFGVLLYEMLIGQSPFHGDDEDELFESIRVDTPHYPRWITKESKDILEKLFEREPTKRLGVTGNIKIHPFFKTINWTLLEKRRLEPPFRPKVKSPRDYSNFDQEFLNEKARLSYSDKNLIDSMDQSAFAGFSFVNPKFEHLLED"},
  "source": "paper PMC7170889",
  "about": "“Synthesis and evaluation of designed PKC modulators for enhanced cancer immunotherapy” (Nature Communications, 2020)",
  "biological_target": "T1, PKCδ-GFP fusion protein (Homo sapiens, UniProt Q05655)",
  "T1 construct": "expressed in transfected cells; host or cells: CHO-k1 (Chinese hamster ovary, ATCC)",
  "assay": "PKCδ-GFP translocation assay in living CHO-k1 cells (confocal microscopy)",
  "assay_type": "cell-based, Chinese hamster",
  "method": "With a panel of compounds bearing diverse functionality at C13, we began to explore how these modifications affect PKC binding and biological function. Because an obvious prerequisite for PKC pathway involvement is binding to PKC, compounds were initially evaluated for PKC affinity in a cell-free competitive binding assay with tritiated phorbol dibutyrate ([^3H]-PDBu). Assays were performed with representative members of both the conventional (PKCα) and novel (PKCδ) PKC families. Subsequently, compounds were assayed for PKC isoform translocation in real time in living cells using an optical assay. Translocation to the plasma membrane is the hallmark of PKC activation[18],[57],[60] and therefore monitoring the subcellular localization of a PKCδ-GFP fusion protein via confocal microscopy offers a convenient method for determining whether a compound enters a cell and engages its PKC isoform target. Finally and of clinical significance, we also determined the effect of compounds on CD22 surface expression in vitro in NALM6 cells, an ALL cell line previously studied in connection with CD22-targeted CAR T cell therapy, and two additional lymphoma cell lines[11],[31],[65].\nFig. 5 Bryostatin-induced PKC translocation. a Bryostatin-induced translocation of PKC from the cytosol to the membrane was determined in real time by monitoring cytosolic fluorescence of a PKCδ-GFP fusion protein using confocal microscopy. Scale bar represents 25 μm. Experiments performed in n = 3 biological replicates. b–d Cytosolic fluorescence normalized to t = 0 (time immediately prior to addition of compound to media) and plotted against time. Error bars excluded for clarity (data presented as the mean of n = 3 biological replicates). Individual curves with error bars included in Supplementary Information.\nPKCδ-GFP Translocation Assay Protocol\nChinese hamster ovary factor K1 (CHO-k1, ATCC) cells were cultured in F-12 Kaighn’s media (Hyclone, 10% fetal bovine serum, 1% penicillin/streptomycin added, reffered to as F-12 +/+ below) at 37 ° C in an incubator (5% CO2). Cell cultures were maintained by splitting cells 1:3 when they reached ~75-100% confluence (every 2-3 days) as follows:\nMedia was aspirated (taking care not to disturb adherent cells) and 3 mL of 0.25% trypsin EDTA (Gibco) was used to remove the cells from the culture flask (T75, Falcon). 1 mL of the cell suspension was then added to 9 mL of fresh F-12 +/+ and the sample was sub-cultured until reaching confluence (~2-3 days).\nA confluent culture of CHO-k1 cells was detached from a T75 flask with 3 mL 0.25% trypsin EDTA.\nCells were counted using a Countess II Automated Cell Counter (Fisher). The cell suspension was diluted to 240,000 cells/mL with fresh F-12 +/+ and 2.5 mL of this diluted stock was added to one well in a 6-well plate. […]",
  "data": [
    {"smiles": "CCC/C=C/C=C/C(=O)O[C@H]1/C(=C/C(=O)OC)C[C@H]2C[C@H]([C@@H](C)O)OC(=O)C[C@H](O)C[C@@H]3C[C@H](OC(C)=O)C(C)(C)[C@](O)(C[C@@H]4C/C(=C/C(=O)OC)C[C@H](/C=C/C(C)(C)[C@]1(O)O2)O4)O3", "note": "[Bryostatin 1, reference compound]", "values": [
      {"measurement": "time required for translocation", "setting": "200 nM", "value": "≤ 5", "unit": "min"},
      {"measurement": "cytosolic PKCδ-GFP translocated to the plasma membrane", "setting": "200 nM, within 5 min", "value": "~ 70%"},
      {"measurement": "Emax at 0.2 µM", "setting": "CHO-K1, read-out: % Translocation (maximum translocation of PKCδ-GFP to the plasma membrane)", "value": 70, "unit": "%"},
      {"measurement": "minimum effective concentration required to induce translocation of PKC-GFP to the membrane", "setting": "CHO-k1 cells, tested at 200 and 1000 nM", "value": 200, "unit": "nM"}
    ]}
  ]
}
